According to patent US20260027128A1 (priority 2016, published 2026):
Like-named read-outs stand apart in the source and are kept apart here.

Assays:
male Sprague-Dawley rats [1] = conditions: inhalation
male Sprague-Dawley rats [2] = assay: Time to tail flick after inhaled remimazolam and/or remifentanil (Example 2); conditions: inhaled remimazolam 10 or 25 mg/mL in combination with 250 mcg/mL remifentanil, P<0.0001

With `COC(=O)CC[C@@H]1N=C(c2ccccn2)c2cc(Br)ccc2-n2c(C)cnc21` [Remimazolam, methyl 3-[(4S)-8-bromo-1-methyl-6-(pyridin-2-yl)-4H-imidazo[1,2-a][1,4]benzodiazepin-4-yl]propanoate] the “Effect on analgesia when administered in conjunction with remifentanil” value (male Sprague-Dawley rats [1]) was “synergistic effect on analgesia”, the Pulmonary mechanics (C57B1/6 mice; mice acutely exposed to combination of remifentanil (200 mcg/mL) and remimazolam (20 mg/mL)) was “no alterations to pulmonary mechanics” and the Pulmonary mechanics (C57B1/6 mice; mice sub-acutely exposed (3 treatments every other day) to combination of remifentanil and remimazolam 20 mg/mL) was “no alterations to pulmonary mechanics”. For the same compound, the “Response to methacholine challenge vs vehicle exposed mice” value (C57B1/6 mice; mice sub-acutely exposed to remifentanil + remimazolam, P<0.0007, decrease attributed to remifentanil) was “diminished changes in lung resistance”, the Pulmonary mechanics (C57B1/6 mice; mice, acute inhalation of remimazolam up to 20 mg/mL) was “did not alter the pulmonary mechanics” and the Adverse pulmonary events (C57B1/6 mice; mice, inhaled remimazolam alone or in combination with remifentanil) was “does not cause lung irritation, bronchospasm, or other adverse pulmonary events”. The “Time to tail flick vs baseline and saline control” value (male Sprague-Dawley rats [2]) was “significant difference in time to tail flick”.
